System: HCT116 PIK3CA mutant cell
Conditions: glutamine deprived, supplemented with 4 mM α-KG, 3 days; less than 8% survived without α-KG

α-ketoglutarate [α-KG] showed a cell survival of about 60%.

— patent publication US10221459B2, “Compositions and methods of treating cancer harboring PIKC3A mutations” (Case Western Reserve University, priority 2014, dated 2019)
